The results in this text go back to PubChem BioAssay AID720536 (National Center for Advancing Translational Sciences (NCATS), 2013).

Molecules are shown by their SMILES. Only a part is listed here, and it is no random draw. Inconclusive results are not listed. Activity calls are given as the source filed them. Calls follow the shape of the dose curve; as a rule, active = well fitted inhibition curve with a large enough effect; inconclusive = small, poorly fitted or top-dose-only effect; inactive = no such curve, though single readings can be large or run the other way.
Potency is read from the fitted curve at half-maximal effect.

The assay in a line: qHTS for Inhibitors of TGF-b: CCL64 Cells Orthogonal Assay for Cherry Picks. Also: nearly all actives have a fitted effect of over 65% in size. The conditions noted are these: CCL64 CAGA-GFP reporter, TGF-b stimulated, GFP fluorescence, 18 h. The text has this:
TGF-b is a main component in the TGF-b signaling pathway which plays diverse roles in cellular and development pathways. TGF-b is the mediated by the transcription factors Smads. Although the Smad-dependent pathway is the primary canonical TGF-b signaling node, TGF-b1 can also activate alternative signaling pathways, including those involving MAPK (ERK, JNK and p38). This interaction may mediate or enhance Smad-dependent responses, or can exert Smad-independent effects. The complexity of this signaling cascade allows the TGF-b superfamily to perform unique, overlapping or redundant functions. […] We aim to identify Smad3-small molecule antagonists using a quantitative high throughput screening (qHTS) approach. […]
Suspensions of trypsinized CCL64 CAGA-GFP cells were dispensed into white, tissue culture-treated, solid 1536-well plates at 5uL/well (1000 cells/well final concentration) in DMEM medium supplemented with 1% FBS. […] The plates were measured on an Acumen eX3 Explorer plate reader for GFP fluorescence (ex488/em500-530). GFP values were calculated by determining the mean GFP fluorescence of individual cells, and compiling these values for each well to determine a total well GFP signal. The %Activity was determined from the corrected fluorescence values. […] Concentration-response curves were fitted to the signals arising from the resulting fluorescence. […]
For the molecule `O=c1c2cc([N+](=O)[O-])ccc2[nH]c2c([N+](=O)[O-])cc([N+](=O)[O-])cc12`, the Potency is active: 5.17 µM.
